Binding of CDR-mutated scFvs to a peptide of the spike HR2 region

Target: peptide PDVDLGDISGINAS, taken from heptad repeat 2 (HR2) of SARS-CoV-2 spike.

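Library AAYL52 holds single substitutions and randomly drawn double and triple substitutions in the CDRs. In AlphaSeq, yeast of one mating type display the scFv and yeast of the other type display the target. The frequency of each diploid, read from paired DNA barcodes, reflects how well the two displayed proteins bind. Read counts were normalised to the haploid input and turned into Kd by a linear fit to BCL2-family pairs of known affinity, for each replicate. Mating was done three times.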

The variants keep the heavy chain, the linker and the frameworks of Ab-95 (scFv order VH, three GGGGS repeats, VL).
VH: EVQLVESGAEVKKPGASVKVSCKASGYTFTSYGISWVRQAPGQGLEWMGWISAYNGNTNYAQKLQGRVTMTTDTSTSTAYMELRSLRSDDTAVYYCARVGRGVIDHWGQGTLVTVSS
VL: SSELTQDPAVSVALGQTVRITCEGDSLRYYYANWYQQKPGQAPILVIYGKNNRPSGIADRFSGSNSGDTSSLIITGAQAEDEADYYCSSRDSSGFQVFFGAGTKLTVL

The parent's light chain CDRs are EGDSLRYYYAN, GKNNRPS, SSRDSSGFQVF; each variant's own CDRs replace them letter for letter.
The read-out is the apparent dissociation constant on a log10 scale (nM): the lower, the stronger.
Replicates are averaged; those with no signal do not enter the mean.
Where no diploid with the target was found in that replicate, the entry reads "ND": below detection, most likely a poor binder, though not proof of it.
In this assay the parent's reference entry averaged 2.31; its copy inside this library read 2.25.

| CDR-L1 | CDR-L2 | CDR-L3 | log10 Kd, replicates | mean, log10 nM | signal with controls |
|---|---|---|---|---|---|
| EGDSLRYYKAN | GKNNRPS | SSIDSSGFQVF | 4.79 / 2.33 / ND | 3.56 | 0/9 |
| EGDSLRYYYAN | GKNNRPF | KSRDSSSFQVF | ND / ND / ND | ND | 2/9 (3.42) |
| DGDSLRYYYQP | GKNNRPS | SSRDSSGFQVF | 4.38 / 4.04 / 3.04 | 3.82 | 5/9 (4.23) |
| IGDSLRYYYAN | GKNNEPS | SSRDSSGFQPF | ND / ND / ND | ND | 3/9 (5.19) |
| EGDSFRYYYAN | GKNNRPS | NSRDSSGFQTF | ND / ND / ND | ND | 2/9 (4.01) |
| EGDSLRYYYAN | GKNNRPS | SSRDSHGYQVF | 2.56 / 2.18 / 2.95 | 2.57 | 1/9 (3.70) |
| EGDSLRYYYAA | GKNDRPS | SSRDSEGFQVF | 4.02 / 3.67 / 3.15 | 3.61 | 4/9 (4.22) |
| EGTSLRYYYFN | IKNNRPS | SSRDSSGFQVF | ND / ND / ND | ND | 4/9 (3.68) |
| EGNSLRYYYAN | GKNNRFS | SSRDSSCFQVF | ND / ND / ND | ND | 1/9 (3.67) |
| EGDDLRYYYAN | VKNPRPS | SSRDSSGFQVF | 3.42 / 4.56 / 3.95 | 3.98 | 3/9 (4.31) |
| EGDSNRYYYTN | GKNNRPS | SSRDSSGMQVF | 1.92 / 1.75 / 1.41 | 1.70 | 2/9 (3.99) |
| EGCSLRDYYAN | YKNNRPS | SSRDSSGFQVF | ND / 4.19 / ND | 4.19 | 1/9 (4.25) |
| EGDTLRYYYAN | GKNNRPS | SSSPSSGFQVF | 3.74 / ND / 3.41 | 3.58 | 2/9 (4.45) |
| EGDSLRYTYAN | GKNNRPS | SSDDSSGFQVF | 1.61 / 1.72 / 0.94 | 1.42 | 3/9 (4.47) |
| EWDSLRYYYAN | GKNNRCS | SSRDSSGFYVF | 4.06 / ND / ND | 4.06 | 1/9 (3.80) |
| SGDSLWYYYAN | GKNNRPS | SSRDSSGFDVF | 3.31 / 3.20 / 2.92 | 3.14 | 5/9 (4.84) |
| EGDSLRYYYAN | GLNNFPS | SSRDNSGFQVF | ND / ND / ND | ND | 1/9 (5.20) |
| YGDSLRGYYAN | GKNNRPS | SSRDSSGFQVF | 1.17 / 1.20 / 1.00 | 1.12 | 4/9 (4.14) |
| EGDSFRYYEAN | GKNNCPS | SSRDSSGFQVF | 3.21 / 2.97 / ND | 3.09 | 2/9 (4.47) |
| EKDSLRYYYAL | DKNNRPS | SSRDSSGFQVF | 3.47 / 3.37 / ND | 3.42 | 5/9 (4.18) |
| EGDSLRYYYAN | GKNNRPS | SSRDSEGFPVS | ND / 4.52 / 2.32 | 3.42 | 0/9 |
| EGDSLRYYYAN | WKNNRPS | SSRRSSGFQVI | 4.65 / 4.71 / ND | 4.68 | 5/9 (4.56) |
| EGDSLRYYYGN | GKNNSPS | SSRDSYGFQVF | 4.13 / 5.27 / 4.75 | 4.72 | 3/9 (3.99) |
| EGDSLRYYYAN | GKNNRCS | SFRDASGFQVF | 3.86 / 3.71 / 4.19 | 3.92 | 4/9 (4.06) |
| EGDSLRYYYAN | GYNNRPS | SSRDISGNQVF | 2.62 / 2.70 / 2.70 | 2.67 | 3/9 (3.40) |
| EASSLRYYYAN | GKNNRKS | SSRDSSGFQVF | 5.41 / 4.16 / 3.97 | 4.52 | 4/9 (4.30) |
| EGDSLRYYYAN | GGNNRCS | SSRDSSGFWVF | 3.46 / 3.86 / 2.74 | 3.35 | 2/9 (4.29) |
| EGDSLRYYYAN | GKNNCPS | SLRDSSGFQVF | 3.48 / 3.30 / 3.81 | 3.53 | 3/9 (3.99) |
| EGDSLRYYYAN | GKVNRPS | SSWGSSGFQVF | 3.82 / ND / 3.08 | 3.45 | 0/9 |
| EGDSLRYYYAN | GKNWRPS | SSADSSRFQVF | 3.77 / 3.49 / 3.55 | 3.60 | 3/9 (3.05) |
| EGDSLRYYYAN | GKNNRPS | SSRDSSGCQVF | 2.85 / 2.92 / 3.63 | 3.13 | 4/9 (3.76) |
| EGESLRYYYAW | GKNNRPS | SSRDSSGFFVF | ND / ND / 4.25 | 4.25 | 4/9 (3.83) |
| EGDSLRYYYAN | GKNNRPV | SSRDSSKFQVF | 3.82 / ND / ND | 3.82 | 0/9 |
| EGDSLRYYYAQ | AKNNRPS | SSRRSSGFQVF | 3.76 / ND / ND | 3.76 | 0/9 |

Three control strains display no target. For library AAYL52, 28% of the pairings with them gave a signal, with a median of 3.91 and one signal in twenty below 2.90, so weak values seen in few replicates may be background. For each scFv, signals with the empty controls are counted beside the result, with their mean in brackets.

From the AlphaSeq antibody data of Engelhart et al. 2022 (doi:10.1038/s41597-022-01779-4), copy in the FLAb collection.